Apparent affinities of Ab-14 variants for a coronavirus HR2 peptide

Antigen: PDVDLGDISGINAS, a 14-residue peptide of the SARS-CoV-2 spike HR2 region.

The variants keep the light chain, the linker and the frameworks of Ab-14 (scFv order VH, a (GGGGS)3 linker, VL).
VH: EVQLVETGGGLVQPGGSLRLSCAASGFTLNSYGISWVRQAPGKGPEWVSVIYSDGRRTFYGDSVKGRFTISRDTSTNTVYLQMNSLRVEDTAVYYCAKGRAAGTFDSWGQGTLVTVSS
VL: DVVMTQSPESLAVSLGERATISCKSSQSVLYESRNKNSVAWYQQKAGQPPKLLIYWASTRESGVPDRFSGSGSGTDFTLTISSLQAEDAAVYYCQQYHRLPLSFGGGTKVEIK

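The starting antibody came from a phage panning campaign against this peptide. These sequences belong to a second round, designed from the earlier measurements on random variants of the parent. Several design methods are mixed in this list. The assay is AlphaSeq: two haploid yeast populations carry antibody and antigen on their surface. Binding brings cells together so that they mate, and sequencing counts the barcode pairs among the diploids. The ratio of observed to expected reads was calibrated, replicate by replicate, on BCL2-family standards whose Kd was known from biolayer interferometry. Each pool was mated in six replicate cultures.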

Substitutions are numbered in sequence along the VH above, starting at 1 (not Kabat).
This list holds designs with at most six substitutions.
Each Kd is an estimate from the mating assay, the geometric mean of the replicates in which the pair was seen; lower is stronger.
An entry "not detected" has no value in the source: the pair was not observed among the diploids in any replicate. This suggests poor binding but is not conclusive.
Values of this round are not directly comparable with the first-round values of the same sequences.

| changes | Kd | detected |
|---|---|---|
| T28S R100V A101E S107T | 410 pM | 6/6 |
| T28V R56K G61A A101T | 3.6 nM | 6/6 |
| N30D G61D R100Y A101V | not detected | 0/6 |
| N30D G61D R100Q | 22 nM | 4/6 |
| T28S S31E R56S A101T | 1.2 nM | 6/6 |
| T28D F59A A101H | 4.3 nM | 6/6 |
| S31D D106I S107K | not detected | 0/6 |
| S31E S63D A101T | 1.8 nM | 6/6 |
| T28D S31T F59A A101T | 4.0 nM | 6/6 |
| T28D S31E S53A G61S R100Q A101V | 9.0 nM | 1/6 |
| G26P T28D R100K A101T | 6.5 nM | 6/6 |
| T28S S31A F59A | 4.0 nM | 6/6 |
| T28D G61Q S63K R100Q S107D | 4.5 nM | 6/6 |
| L29P S31D A102T G103L D106I | not detected | 0/6 |
| R56K G61S A101V | 1.9 nM | 6/6 |
| F27Y A102S | not detected | 0/6 |
| T28W G61I R100Q A101T | not detected | 0/6 |
| N30D S31E G61S S107M | 62 nM | 1/6 |
| T28S G61A R100A | 6.0 nM | 6/6 |
| N30P S31D F59Q G61I A102K | not detected | 0/6 |
| G26Y T28D G61I R100Q A101E | 43 nM | 6/6 |
| T28D G99S A101Y | not detected | 0/6 |
| S31D G61A A101V D106W | 190 nM | 6/6 |
| G26K T28D S31K A101T | 8.3 nM | 6/6 |
| T28E G61K R100E | 33 nM | 5/6 |
| G26K F59A S107L | 250 nM | 1/6 |
| S31E R56K R100Q S107L | 2.8 nM | 6/6 |
| T28S S53A R100K S107Q | 6.5 nM | 6/6 |
| T28E S63N R100E A101T | 2.0 nM | 6/6 |
| T28S S31E A101T D106S | 560 pM | 6/6 |
| T28Q S31D G61I S63Q R100K | 4.1 nM | 2/6 |
| G26R S31Q Y52W G61S T104H | not detected | 0/6 |
| T28E R100E S107T | not detected | 0/6 |
| T28V S31Q G61S A101Q | 11 nM | 6/6 |
| S31E R56I A101M | 4.6 nM | 6/6 |
| T28S S31E S107T | 520 pM | 6/6 |
| R56M G61S S63D A101T | 5.6 nM | 6/6 |
| T28A G61I R100N | 7.7 nM | 6/6 |
| S31E S53F A102Q | 14 µM | 1/6 |
| T28E S31D F59E G61Q | 28 nM | 3/6 |
| G61S R100N A102G S107T | 9.6 nM | 6/6 |
| T28S S31E F59M G61W A101T | not detected | 0/6 |
| S31E S35H R100T A101E | 170 pM | 6/6 |
| G26K T28E S53A | 27 nM | 6/6 |
| S31E R56W G61T | 700 pM | 3/6 |
| S31E S63R A101T D106V | 200 nM | 2/6 |
| N30M G61M R100Q A101L | 97 nM | 2/6 |
| F27Y S31D T104L | not detected | 0/6 |
| N30D R56M S107Q | 28 nM | 6/6 |
| N30M S53A R100Q D106E | 8.4 nM | 4/6 |
| S53A G99V F105N D106K | not detected | 0/6 |
| G26W T28N G61A R100N | 31 nM | 2/6 |
| T28D G61V A101N | 3.1 nM | 6/6 |
| R100H A101V | 22 nM | 6/6 |
| N30M R100Q A101L | 5.2 nM | 3/6 |
| T28G G61T R100Q | 18 nM | 6/6 |
| S31Q F59A G61I | 8.6 nM | 6/6 |
| T28S G61T R100N A101E | 790 pM | 6/6 |
| S31E G61H T104Q | not detected | 0/6 |
| T28S R100S S107D | 2.5 nM | 6/6 |
| T28S S63Q A101T S107K | 15 nM | 6/6 |
| N30E Y32F R56V S63N D106P | not detected | 0/6 |
| S35H F59G G61Q R100F | not detected | 0/6 |
| S31Q G61A D106V | not detected | 0/6 |
| R100S A102I | not detected | 0/6 |
| S53A R100E D106K S107M | 4.6 nM | 6/6 |
| S31D S63Q K65E R100E A101T | 3.7 nM | 6/6 |
| S31E F59M G61D A101C | 3.8 nM | 5/6 |
| T28P N30D G61S G103F | not detected | 0/6 |
| F27E T28G R56Y A102R F105N | not detected | 0/6 |
| N30Q S31D | 12 nM | 6/6 |
| A102H G103A F105S | 63 nM | 1/6 |

The first 8 entries again:

changes,Kd,detected
T28S R100V A101E S107T,410 pM,6/6
T28V R56K G61A A101T,3.6 nM,6/6
N30D G61D R100Y A101V,not detected,0/6
N30D G61D R100Q,22 nM,4/6
T28S S31E R56S A101T,1.2 nM,6/6
T28D F59A A101H,4.3 nM,6/6
S31D D106I S107K,not detected,0/6
S31E S63D A101T,1.8 nM,6/6

The authors averaged sequences with at least three values out of six and counted those with two or fewer as poor binders.
Of ten entries with the parent sequence, four were seen in most replicates (averages 2.2 nM to 240 nM), three in one and three in none, so single entries are noisy.
Background: pairings of all heavy chain designs with three empty control strains gave a value in 1% of cases (median 120 nM, 5th percentile 7.0 nM). Values in that range, when seen in few replicates, are hard to tell from nonspecific mating.

Data: MIT Lincoln Laboratory AlphaSeq set, Li et al. 2023, doi:10.1038/s41467-023-39022-2, as distributed in FLAb.